The text below walks through data of patent publication US6001852A, “Clioquinol for the treatment of Alzheimer's disease” (priority 1996, dated 1999).

One assay deals with zinc precipitated Aβ. Kind of assay: Washing of zinc-aggregated synthetic Aβ on nylon membrane (anti Aβ mAb 6E10, ECL-film). Type of assay: biochemical. The following applies: 2 μM in TBS, 200 μl wash; 10 ng Aβ aggregated with 25 μM ZnCl; 100% for TBS alone. The procedure: Samples of 10 ng synthetic Aβ were placed in microtitre wells and caused to aggregate by the addition of 25 μM ZnCl. The aggregates were then transferred to a 0.2 μm nylon membrane by filtration. […] The membrane was fixed, probed with the anti Aβ monoclonal antibody 6E10 and developed for exposure to ECL-film. The transmittance of the ECL-film was measured and the relative signal strength calculated based on 100% for TBS alone.

The test system of another assay is Aβ. Briefly: Solubilization of Aβ from Alzheimer's disease brain homogenates (Western blot, mAb W02). In kind it is biochemical, human. The conditions noted are these: % of final PBS/clioquinol extract (100%=800 nM clioquinol).

Turning to `Oc1c(I)cc(Cl)c2cccnc12` [clioquinol, 5-chloro-7-iodo-8 hydroxyquinoline], the “Relative signal strength (Aβ remaining on membrane)” value in the assay on zinc precipitated Aβ was 49%. Further, in the assay on Aβ, the “Optimal concentration for solubilization of Aβ” value stood at 10%.
